Measurements as given in patent publication EP2975056A1 (NOVO NORDISK A/S, dated 2016).

The chains behind the UniProt entries cited, without tags or fusion partners. A line that says so, or that is headed by a name, gives the form on record, which may keep a tag or linker. Residues count along the entry.
UniProt Q9NP99, 21-205 limits assumed, form in doubt: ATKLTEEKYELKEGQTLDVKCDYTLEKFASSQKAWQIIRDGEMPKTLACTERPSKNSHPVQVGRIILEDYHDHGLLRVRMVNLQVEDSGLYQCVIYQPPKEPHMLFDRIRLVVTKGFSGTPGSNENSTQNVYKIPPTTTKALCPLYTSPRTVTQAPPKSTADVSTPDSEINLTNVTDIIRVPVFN

B1: mAb 0317 (mAb 0170 variant, LC E27Q, E97S) (antibody, human IgG4 S228P, kappa, V domains shown)
VH: EVQLVESGGGLVQPGGSLKLSCAASGFTFSTYAMHWVRQASGKGLEWVGRIRTKSSNYATYYAASVKGRFTISRDDSKNTAYLQMNSLKTEDTAVYYCTRDMGIRRQFAYWGQGTLVTVSS
VL: DIVLTQSPDSLAVSLGERATINCRASQSVDTFDYSFLHWYQQKPGQPPKLLIYRASNLESGVPDRFSGSGSGTDFTLTISSLQAEDVAVYYCQQSNSDPYTFGQGTKLEIKR
B2: mAb 0318 (mAb 0170 variant, LC E27Q, E97Q) (antibody, human IgG4 S228P, kappa, V domains shown)
VH: EVQLVESGGGLVQPGGSLKLSCAASGFTFSTYAMHWVRQASGKGLEWVGRIRTKSSNYATYYAASVKGRFTISRDDSKNTAYLQMNSLKTEDTAVYYCTRDMGIRRQFAYWGQGTLVTVSS
VL: DIVLTQSPDSLAVSLGERATINCRASQSVDTFDYSFLHWYQQKPGQPPKLLIYRASNLESGVPDRFSGSGSGTDFTLTISSLQAEDVAVYYCQQSNQDPYTFGQGTKLEIKR
notes: also called ID; No. 5
B3: mAb 0319 (mAb 0170 variant, LC E97S) (antibody, human IgG4 S228P, kappa, V domains shown)
VH: EVQLVESGGGLVQPGGSLKLSCAASGFTFSTYAMHWVRQASGKGLEWVGRIRTKSSNYATYYAASVKGRFTISRDDSKNTAYLQMNSLKTEDTAVYYCTRDMGIRRQFAYWGQGTLVTVSS
VL: DIVLTQSPDSLAVSLGERATINCRASESVDTFDYSFLHWYQQKPGQPPKLLIYRASNLESGVPDRFSGSGSGTDFTLTISSLQAEDVAVYYCQQSNSDPYTFGQGTKLEIKR
B4: mAb 0320 (mAb 0170 variant, LC E97Q) (antibody, human IgG4 S228P, kappa, V domains shown)
VH: EVQLVESGGGLVQPGGSLKLSCAASGFTFSTYAMHWVRQASGKGLEWVGRIRTKSSNYATYYAASVKGRFTISRDDSKNTAYLQMNSLKTEDTAVYYCTRDMGIRRQFAYWGQGTLVTVSS
VL: DIVLTQSPDSLAVSLGERATINCRASESVDTFDYSFLHWYQQKPGQPPKLLIYRASNLESGVPDRFSGSGSGTDFTLTISSLQAEDVAVYYCQQSNQDPYTFGQGTKLEIKR
B5: mAb 0321 (mAb 0170 variant, LC E27Q) (antibody, human IgG4 S228P, kappa, V domains shown)
VH: EVQLVESGGGLVQPGGSLKLSCAASGFTFSTYAMHWVRQASGKGLEWVGRIRTKSSNYATYYAASVKGRFTISRDDSKNTAYLQMNSLKTEDTAVYYCTRDMGIRRQFAYWGQGTLVTVSS
VL: DIVLTQSPDSLAVSLGERATINCRASQSVDTFDYSFLHWYQQKPGQPPKLLIYRASNLESGVPDRFSGSGSGTDFTLTISSLQAEDVAVYYCQQSNEDPYTFGQGTKLEIKR
B6: mAb 0322 (mAb 0170 variant, LC F32A) (antibody, human IgG4 S228P, kappa, V domains shown)
VH: EVQLVESGGGLVQPGGSLKLSCAASGFTFSTYAMHWVRQASGKGLEWVGRIRTKSSNYATYYAASVKGRFTISRDDSKNTAYLQMNSLKTEDTAVYYCTRDMGIRRQFAYWGQGTLVTVSS
VL: DIVLTQSPDSLAVSLGERATINCRASESVDTADYSFLHWYQQKPGQPPKLLIYRASNLESGVPDRFSGSGSGTDFTLTISSLQAEDVAVYYCQQSNEDPYTFGQGTKLEIKR
notes: also called ID; NO 9
B7: mAb 0323 (mAb 0170 variant, LC F32S) (antibody, human IgG4 S228P, kappa, V domains shown)
VH: EVQLVESGGGLVQPGGSLKLSCAASGFTFSTYAMHWVRQASGKGLEWVGRIRTKSSNYATYYAASVKGRFTISRDDSKNTAYLQMNSLKTEDTAVYYCTRDMGIRRQFAYWGQGTLVTVSS
VL: DIVLTQSPDSLAVSLGERATINCRASESVDTSDYSFLHWYQQKPGQPPKLLIYRASNLESGVPDRFSGSGSGTDFTLTISSLQAEDVAVYYCQQSNEDPYTFGQGTKLEIKR
B8: mAb 0324 (mAb 0170 variant, HC A59Y) (antibody, human IgG4 S228P, kappa, V domains shown)
VH: EVQLVESGGGLVQPGGSLKLSCAASGFTFSTYAMHWVRQASGKGLEWVGRIRTKSSNYYTYYAASVKGRFTISRDDSKNTAYLQMNSLKTEDTAVYYCTRDMGIRRQFAYWGQGTLVTVSS
VL: DIVLTQSPDSLAVSLGERATINCRASESVDTFDYSFLHWYQQKPGQPPKLLIYRASNLESGVPDRFSGSGSGTDFTLTISSLQAEDVAVYYCQQSNEDPYTFGQGTKLEIKR
B9: mAb 0325 (mAb 0170 variant, HC N57S) (antibody, human IgG4 S228P, kappa, V domains shown)
VH: EVQLVESGGGLVQPGGSLKLSCAASGFTFSTYAMHWVRQASGKGLEWVGRIRTKSSSYATYYAASVKGRFTISRDDSKNTAYLQMNSLKTEDTAVYYCTRDMGIRRQFAYWGQGTLVTVSS
VL: DIVLTQSPDSLAVSLGERATINCRASESVDTFDYSFLHWYQQKPGQPPKLLIYRASNLESGVPDRFSGSGSGTDFTLTISSLQAEDVAVYYCQQSNEDPYTFGQGTKLEIKR
B10: mAb 0326 (mAb 0170 variant, HC A59Y, N57S) (antibody, human IgG4 S228P, kappa, V domains shown)
VH: EVQLVESGGGLVQPGGSLKLSCAASGFTFSTYAMHWVRQASGKGLEWVGRIRTKSSSYYTYYAASVKGRFTISRDDSKNTAYLQMNSLKTEDTAVYYCTRDMGIRRQFAYWGQGTLVTVSS
VL: DIVLTQSPDSLAVSLGERATINCRASESVDTFDYSFLHWYQQKPGQPPKLLIYRASNLESGVPDRFSGSGSGTDFTLTISSLQAEDVAVYYCQQSNEDPYTFGQGTKLEIKR

Target: T1, human TREM-1-Fc (human, UniProt Q9NP99 21-205, limits assumed)
T1 construct: not shown: Fc part of the fusion
Test: binding kinetics, method not stated in the example

Row | Binder | Kd [pM] | koff [s⁻¹] | kon [M⁻¹ s⁻¹]
1 | B1 | 200 | 0.0006 | 4e+06
2 | B2 | 200 | 0.0008 | 4e+06
3 | B3 | 200 | 0.0006 | 4e+06
4 | B4 | 200 | 0.0007 | 4e+06
5 | B5 | 200 | 0.0006 | 3e+06
6 | B6 | 100 | 0.0003 | 3e+06
7 | B7 | 300 | 0.0006 | 2e+06
8 | B8 | 300 | 0.0008 | 3e+06
9 | B9 | 80 | 0.0003 | 4e+06
10 | B10 | 200 | 0.0007 | 3e+06
